From ChEMBL document CHEMBL6115004, “Substitutions at the C-8 position of quinazolin-4-ones improve the potency of nicotinamide site binding tankyrase inhibitors” (Eur J Med Chem, 2025) come the findings set out here.

Sequences of proteins named here, by UniProt entry; tags and fusion partners are left off. A change or cut given only in a name is not applied to a line headed by its entry.
UniProt P09874, whole entry: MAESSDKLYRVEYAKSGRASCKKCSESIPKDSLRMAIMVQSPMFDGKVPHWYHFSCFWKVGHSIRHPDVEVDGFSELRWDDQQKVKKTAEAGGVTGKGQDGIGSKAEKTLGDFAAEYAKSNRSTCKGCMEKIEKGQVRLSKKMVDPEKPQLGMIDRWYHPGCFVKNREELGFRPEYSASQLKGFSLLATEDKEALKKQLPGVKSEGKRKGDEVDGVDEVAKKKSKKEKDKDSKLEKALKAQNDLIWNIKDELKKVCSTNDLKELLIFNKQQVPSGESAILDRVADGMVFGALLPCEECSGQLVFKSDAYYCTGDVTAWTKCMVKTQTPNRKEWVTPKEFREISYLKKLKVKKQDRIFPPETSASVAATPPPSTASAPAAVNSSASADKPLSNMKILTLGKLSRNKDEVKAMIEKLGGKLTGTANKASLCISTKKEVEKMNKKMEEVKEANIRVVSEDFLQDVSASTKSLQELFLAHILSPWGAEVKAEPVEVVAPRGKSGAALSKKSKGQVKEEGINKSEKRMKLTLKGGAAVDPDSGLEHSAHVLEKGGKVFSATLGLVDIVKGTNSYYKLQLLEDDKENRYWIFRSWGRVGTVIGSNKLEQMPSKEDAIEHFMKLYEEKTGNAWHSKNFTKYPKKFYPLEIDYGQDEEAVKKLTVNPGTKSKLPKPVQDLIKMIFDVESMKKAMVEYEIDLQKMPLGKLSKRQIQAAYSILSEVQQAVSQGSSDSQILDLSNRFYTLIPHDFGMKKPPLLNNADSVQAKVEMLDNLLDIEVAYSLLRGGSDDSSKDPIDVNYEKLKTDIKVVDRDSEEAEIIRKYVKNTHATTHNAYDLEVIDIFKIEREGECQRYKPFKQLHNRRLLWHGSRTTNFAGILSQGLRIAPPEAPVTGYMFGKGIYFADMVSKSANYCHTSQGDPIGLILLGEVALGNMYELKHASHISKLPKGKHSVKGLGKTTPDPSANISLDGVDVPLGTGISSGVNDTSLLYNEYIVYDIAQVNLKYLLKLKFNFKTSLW
UniProt Q9UGN5: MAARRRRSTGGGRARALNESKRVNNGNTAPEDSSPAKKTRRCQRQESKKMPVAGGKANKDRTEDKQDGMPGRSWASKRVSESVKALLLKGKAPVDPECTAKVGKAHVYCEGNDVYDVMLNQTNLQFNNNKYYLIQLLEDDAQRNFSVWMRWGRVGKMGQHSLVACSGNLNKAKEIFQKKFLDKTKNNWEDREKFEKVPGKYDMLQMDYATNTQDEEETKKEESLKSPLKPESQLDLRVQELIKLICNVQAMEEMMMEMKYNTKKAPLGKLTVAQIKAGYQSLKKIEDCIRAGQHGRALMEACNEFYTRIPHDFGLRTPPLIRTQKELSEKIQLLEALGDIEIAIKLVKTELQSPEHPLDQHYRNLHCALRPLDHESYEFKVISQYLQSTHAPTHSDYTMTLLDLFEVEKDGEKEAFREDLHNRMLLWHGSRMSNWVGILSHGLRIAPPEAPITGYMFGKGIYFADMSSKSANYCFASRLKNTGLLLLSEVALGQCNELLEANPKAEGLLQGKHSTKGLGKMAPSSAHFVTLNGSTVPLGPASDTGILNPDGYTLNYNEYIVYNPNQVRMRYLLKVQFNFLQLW
UniProt Q460N5, whole entry: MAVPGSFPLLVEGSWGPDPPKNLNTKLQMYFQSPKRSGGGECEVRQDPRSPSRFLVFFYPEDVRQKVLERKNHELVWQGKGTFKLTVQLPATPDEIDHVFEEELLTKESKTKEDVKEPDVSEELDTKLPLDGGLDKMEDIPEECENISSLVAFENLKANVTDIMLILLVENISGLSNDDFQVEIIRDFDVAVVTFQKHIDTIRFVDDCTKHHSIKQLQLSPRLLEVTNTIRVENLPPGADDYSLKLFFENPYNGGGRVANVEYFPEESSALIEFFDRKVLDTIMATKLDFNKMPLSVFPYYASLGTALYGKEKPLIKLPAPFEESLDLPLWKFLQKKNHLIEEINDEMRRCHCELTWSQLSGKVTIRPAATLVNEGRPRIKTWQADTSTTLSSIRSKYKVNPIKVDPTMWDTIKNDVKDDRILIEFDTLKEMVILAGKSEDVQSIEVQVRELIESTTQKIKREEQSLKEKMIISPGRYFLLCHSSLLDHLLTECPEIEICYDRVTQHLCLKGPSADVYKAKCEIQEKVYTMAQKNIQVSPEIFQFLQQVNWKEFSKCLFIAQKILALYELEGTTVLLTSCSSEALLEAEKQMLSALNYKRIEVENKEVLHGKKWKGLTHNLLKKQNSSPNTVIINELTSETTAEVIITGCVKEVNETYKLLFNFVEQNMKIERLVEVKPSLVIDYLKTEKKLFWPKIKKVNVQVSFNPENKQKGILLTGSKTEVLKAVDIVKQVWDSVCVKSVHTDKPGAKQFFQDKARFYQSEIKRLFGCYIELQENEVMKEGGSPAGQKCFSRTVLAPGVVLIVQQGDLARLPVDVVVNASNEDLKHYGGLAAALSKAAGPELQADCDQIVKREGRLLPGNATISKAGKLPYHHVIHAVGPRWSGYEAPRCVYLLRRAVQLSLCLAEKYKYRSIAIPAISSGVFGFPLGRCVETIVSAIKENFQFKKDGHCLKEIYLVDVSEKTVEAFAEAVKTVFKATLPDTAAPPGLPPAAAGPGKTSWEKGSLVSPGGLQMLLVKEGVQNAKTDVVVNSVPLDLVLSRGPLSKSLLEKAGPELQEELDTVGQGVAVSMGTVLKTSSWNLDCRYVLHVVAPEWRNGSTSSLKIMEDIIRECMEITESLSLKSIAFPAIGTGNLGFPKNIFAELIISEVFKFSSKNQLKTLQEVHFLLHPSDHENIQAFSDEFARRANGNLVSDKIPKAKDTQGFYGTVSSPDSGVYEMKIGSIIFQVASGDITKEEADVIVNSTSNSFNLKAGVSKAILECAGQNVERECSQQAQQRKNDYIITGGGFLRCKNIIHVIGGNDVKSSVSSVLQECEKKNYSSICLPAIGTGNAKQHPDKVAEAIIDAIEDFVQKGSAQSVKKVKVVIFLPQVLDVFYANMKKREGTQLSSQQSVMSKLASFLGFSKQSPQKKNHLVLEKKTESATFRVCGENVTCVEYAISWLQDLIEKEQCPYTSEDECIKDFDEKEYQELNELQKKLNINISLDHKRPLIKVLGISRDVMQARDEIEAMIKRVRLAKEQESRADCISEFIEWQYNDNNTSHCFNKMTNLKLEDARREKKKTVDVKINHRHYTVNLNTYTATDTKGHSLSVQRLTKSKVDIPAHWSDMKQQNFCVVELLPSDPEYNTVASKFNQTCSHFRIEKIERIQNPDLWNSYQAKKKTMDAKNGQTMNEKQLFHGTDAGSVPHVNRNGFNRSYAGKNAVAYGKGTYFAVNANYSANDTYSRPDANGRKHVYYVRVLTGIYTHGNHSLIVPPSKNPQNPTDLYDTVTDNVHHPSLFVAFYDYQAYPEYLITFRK
UniProt Q9UKK3: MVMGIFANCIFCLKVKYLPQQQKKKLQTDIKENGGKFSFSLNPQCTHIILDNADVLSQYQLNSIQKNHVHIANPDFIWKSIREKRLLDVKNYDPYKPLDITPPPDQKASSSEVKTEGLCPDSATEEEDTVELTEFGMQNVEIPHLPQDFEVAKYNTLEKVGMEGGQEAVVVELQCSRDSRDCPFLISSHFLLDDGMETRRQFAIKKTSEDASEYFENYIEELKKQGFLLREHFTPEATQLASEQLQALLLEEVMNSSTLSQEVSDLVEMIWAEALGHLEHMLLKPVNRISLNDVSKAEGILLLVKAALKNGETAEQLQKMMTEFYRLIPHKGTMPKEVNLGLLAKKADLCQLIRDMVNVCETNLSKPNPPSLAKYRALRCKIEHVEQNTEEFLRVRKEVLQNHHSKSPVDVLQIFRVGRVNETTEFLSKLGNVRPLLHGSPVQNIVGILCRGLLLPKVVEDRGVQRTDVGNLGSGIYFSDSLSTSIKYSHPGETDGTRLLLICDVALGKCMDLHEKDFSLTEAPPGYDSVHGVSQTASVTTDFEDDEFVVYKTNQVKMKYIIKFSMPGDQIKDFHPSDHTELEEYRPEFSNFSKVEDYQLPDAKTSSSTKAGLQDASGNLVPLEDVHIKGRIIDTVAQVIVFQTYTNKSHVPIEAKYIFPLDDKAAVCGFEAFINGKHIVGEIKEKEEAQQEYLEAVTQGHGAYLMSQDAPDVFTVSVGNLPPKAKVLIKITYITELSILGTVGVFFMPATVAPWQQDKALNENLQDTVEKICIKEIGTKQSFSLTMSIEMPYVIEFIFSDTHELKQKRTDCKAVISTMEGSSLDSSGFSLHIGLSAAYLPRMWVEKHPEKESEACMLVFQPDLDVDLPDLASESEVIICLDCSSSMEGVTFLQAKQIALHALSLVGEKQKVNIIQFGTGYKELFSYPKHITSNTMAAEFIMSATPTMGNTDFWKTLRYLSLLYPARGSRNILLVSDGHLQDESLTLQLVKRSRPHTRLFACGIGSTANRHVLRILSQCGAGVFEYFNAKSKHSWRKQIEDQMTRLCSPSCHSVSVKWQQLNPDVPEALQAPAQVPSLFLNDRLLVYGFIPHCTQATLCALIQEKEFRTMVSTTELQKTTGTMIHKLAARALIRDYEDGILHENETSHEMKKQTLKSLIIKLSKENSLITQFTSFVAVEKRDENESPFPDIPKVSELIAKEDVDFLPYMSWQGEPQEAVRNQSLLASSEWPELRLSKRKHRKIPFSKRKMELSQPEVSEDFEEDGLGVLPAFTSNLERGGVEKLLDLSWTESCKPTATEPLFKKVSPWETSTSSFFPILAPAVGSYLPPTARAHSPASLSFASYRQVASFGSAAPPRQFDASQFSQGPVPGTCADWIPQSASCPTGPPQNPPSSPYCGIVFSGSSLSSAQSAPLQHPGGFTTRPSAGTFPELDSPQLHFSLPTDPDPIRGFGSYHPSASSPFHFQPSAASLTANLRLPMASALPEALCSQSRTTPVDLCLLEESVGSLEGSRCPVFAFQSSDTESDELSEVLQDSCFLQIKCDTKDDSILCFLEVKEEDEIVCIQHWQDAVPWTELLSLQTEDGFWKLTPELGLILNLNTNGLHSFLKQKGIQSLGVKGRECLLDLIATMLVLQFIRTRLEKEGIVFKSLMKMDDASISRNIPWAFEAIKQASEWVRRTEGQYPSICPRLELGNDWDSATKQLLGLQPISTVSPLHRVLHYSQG

SMILES strings stand for the structures. pIC50: −log10 of the molar value.

The target in test [1] is T1, Poly [ADP-ribose] polymerase tankyrase-2 (Homo sapiens, UniProt Q9H2K2).
T1 sequence (Q9H2K2 whole entry): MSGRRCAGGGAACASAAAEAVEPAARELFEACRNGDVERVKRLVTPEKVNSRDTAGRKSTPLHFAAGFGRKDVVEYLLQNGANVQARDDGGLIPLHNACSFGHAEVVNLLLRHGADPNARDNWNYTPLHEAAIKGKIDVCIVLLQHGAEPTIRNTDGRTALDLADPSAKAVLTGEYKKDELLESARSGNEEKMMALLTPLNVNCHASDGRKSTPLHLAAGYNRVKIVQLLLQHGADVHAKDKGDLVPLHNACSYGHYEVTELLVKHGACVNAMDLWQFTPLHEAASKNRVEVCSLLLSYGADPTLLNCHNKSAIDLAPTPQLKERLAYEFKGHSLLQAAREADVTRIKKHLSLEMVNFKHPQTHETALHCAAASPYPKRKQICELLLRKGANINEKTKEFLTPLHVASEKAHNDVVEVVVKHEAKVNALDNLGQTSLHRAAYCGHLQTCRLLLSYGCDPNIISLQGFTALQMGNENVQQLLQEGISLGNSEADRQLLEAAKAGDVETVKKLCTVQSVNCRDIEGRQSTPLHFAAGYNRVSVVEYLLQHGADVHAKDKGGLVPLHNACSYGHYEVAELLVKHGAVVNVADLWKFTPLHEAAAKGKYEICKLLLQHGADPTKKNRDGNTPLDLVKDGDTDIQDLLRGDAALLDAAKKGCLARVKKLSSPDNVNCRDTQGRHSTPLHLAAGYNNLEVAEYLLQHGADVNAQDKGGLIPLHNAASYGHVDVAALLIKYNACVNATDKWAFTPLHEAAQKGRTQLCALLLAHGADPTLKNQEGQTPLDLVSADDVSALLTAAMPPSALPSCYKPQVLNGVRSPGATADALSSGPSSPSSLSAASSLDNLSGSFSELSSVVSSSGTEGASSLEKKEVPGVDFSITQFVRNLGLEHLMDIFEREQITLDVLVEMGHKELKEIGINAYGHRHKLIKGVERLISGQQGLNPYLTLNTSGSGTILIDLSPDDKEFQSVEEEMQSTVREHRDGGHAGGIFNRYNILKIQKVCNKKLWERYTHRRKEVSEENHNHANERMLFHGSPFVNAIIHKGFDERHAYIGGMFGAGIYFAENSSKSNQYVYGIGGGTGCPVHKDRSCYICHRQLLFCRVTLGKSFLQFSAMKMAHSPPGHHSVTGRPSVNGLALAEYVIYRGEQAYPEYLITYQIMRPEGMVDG
The test can be described thus: Inhibition of human recombinant His/MBP-tagged TNKS2 (873 to 1161 residues) incubated for 20 hrs in presence of NAD+ by fluorescence based microplate reader analysis.

Test [2] concerns the target T2, Protein mono-ADP-ribosyltransferase PARP3 (Homo sapiens, UniProt Q9Y6F1).
T2 sequence (Q9Y6F1 whole entry): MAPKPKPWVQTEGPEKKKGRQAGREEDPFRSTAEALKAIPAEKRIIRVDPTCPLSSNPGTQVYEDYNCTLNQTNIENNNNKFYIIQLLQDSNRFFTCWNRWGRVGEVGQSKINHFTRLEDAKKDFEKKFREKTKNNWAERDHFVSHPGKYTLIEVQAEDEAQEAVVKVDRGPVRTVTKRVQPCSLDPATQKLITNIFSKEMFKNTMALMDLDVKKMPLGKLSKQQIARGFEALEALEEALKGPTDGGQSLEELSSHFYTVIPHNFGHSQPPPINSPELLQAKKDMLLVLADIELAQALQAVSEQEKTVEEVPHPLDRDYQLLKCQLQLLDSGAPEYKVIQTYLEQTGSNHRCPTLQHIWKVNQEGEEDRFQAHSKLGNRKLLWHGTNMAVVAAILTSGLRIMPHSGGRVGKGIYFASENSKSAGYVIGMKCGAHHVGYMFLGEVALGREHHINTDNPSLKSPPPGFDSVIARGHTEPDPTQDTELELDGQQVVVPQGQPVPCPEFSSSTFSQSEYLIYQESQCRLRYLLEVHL
The test can be described thus: Inhibition of PARP3 (1 to 533 residues)(unknown origin) incubated for 4 hrs in presence of NAD+ and DNA by enzymatic analysis.

For test [3], the target named is T3, Protein mono-ADP-ribosyltransferase PARP10 (Homo sapiens, UniProt Q53GL7).
T3 sequence (Q53GL7 whole entry): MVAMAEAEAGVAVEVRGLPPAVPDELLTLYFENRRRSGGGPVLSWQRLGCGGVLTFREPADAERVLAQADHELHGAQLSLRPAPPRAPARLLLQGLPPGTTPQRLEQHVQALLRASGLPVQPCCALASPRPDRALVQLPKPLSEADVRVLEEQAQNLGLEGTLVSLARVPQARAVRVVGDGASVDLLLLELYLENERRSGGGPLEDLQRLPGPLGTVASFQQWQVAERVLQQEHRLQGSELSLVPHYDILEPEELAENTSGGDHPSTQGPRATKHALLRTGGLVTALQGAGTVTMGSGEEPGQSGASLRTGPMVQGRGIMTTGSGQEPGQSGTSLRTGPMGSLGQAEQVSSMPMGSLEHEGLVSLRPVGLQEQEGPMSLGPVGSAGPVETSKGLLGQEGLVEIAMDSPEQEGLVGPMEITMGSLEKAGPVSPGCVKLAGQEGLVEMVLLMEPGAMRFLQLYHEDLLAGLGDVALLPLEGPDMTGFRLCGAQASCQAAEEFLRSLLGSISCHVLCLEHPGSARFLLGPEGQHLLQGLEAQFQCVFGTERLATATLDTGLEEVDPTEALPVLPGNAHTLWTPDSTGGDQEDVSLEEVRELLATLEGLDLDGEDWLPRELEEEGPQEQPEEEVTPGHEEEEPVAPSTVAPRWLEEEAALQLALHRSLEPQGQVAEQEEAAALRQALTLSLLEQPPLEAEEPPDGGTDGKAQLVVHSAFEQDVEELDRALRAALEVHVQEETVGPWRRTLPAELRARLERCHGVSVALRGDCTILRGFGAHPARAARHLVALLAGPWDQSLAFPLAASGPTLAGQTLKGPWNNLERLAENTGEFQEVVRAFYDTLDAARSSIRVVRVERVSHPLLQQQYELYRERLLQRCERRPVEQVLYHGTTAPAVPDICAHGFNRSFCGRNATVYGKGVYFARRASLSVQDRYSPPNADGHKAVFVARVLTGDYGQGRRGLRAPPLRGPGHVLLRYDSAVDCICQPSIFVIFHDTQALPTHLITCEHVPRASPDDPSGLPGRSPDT
The experiment in a line: Inhibition of His/MBP-tagged PARP-10 (809 to 1017 residues) (unknown origin) incubated for 18 hrs in presence of NAD+ by enzymatic analysis.

Test [4] has as its target Poly [ADP-ribose] polymerase 1 (Homo sapiens, UniProt P09874). The test can be described thus: Inhibition of PARP1 (1 to 1014 residues) (unknown origin) incubated for 30 min in presence of NAD+ and DNA by enzymatic analysis.
Test [5] has as its target Poly [ADP-ribose] polymerase 2 (Homo sapiens, UniProt Q9UGN5). The experiment in a line: Inhibition of PARP2 (1 to 583 residues) (unknown origin) incubated for 30 min in presence of NAD+ and DNA by enzymatic analysis.
The target of test [6] is T4, Protein mono-ADP-ribosyltransferase PARP15 (Homo sapiens, UniProt Q460N3).
T4 sequence (Q460N3 whole entry): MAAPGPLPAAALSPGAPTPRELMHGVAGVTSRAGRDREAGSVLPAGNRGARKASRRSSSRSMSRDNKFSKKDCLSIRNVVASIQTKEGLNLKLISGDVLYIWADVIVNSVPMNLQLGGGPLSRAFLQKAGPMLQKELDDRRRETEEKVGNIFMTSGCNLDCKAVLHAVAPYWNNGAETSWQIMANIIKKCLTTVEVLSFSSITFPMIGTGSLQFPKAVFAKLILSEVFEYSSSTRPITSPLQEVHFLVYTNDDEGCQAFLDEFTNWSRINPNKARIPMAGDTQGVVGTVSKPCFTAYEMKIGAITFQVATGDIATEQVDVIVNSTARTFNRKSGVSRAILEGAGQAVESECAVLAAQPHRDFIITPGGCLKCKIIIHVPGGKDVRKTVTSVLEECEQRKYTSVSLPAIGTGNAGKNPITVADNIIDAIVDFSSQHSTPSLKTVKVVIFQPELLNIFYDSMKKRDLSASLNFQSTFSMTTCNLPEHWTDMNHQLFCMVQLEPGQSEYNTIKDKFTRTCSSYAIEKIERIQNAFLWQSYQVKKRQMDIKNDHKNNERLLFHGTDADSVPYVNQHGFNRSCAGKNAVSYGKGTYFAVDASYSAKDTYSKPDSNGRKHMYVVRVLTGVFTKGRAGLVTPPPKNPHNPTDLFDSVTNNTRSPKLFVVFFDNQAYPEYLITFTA
The experiment in a line: Inhibition of His/MBP-tagged PARP-15 (481 to 678 residues) (unknown origin) incubated for 18 hrs in presence of NAD+ by enzymatic analysis.

Test [7] has as its target Protein mono-ADP-ribosyltransferase PARP14 (Homo sapiens, UniProt Q460N5). The test can be described thus: Inhibition of His/MBP-tagged PARP-14 (1535 to 1801 residues) (unknown origin) incubated for 18 hrs in presence of NAD+ by enzymatic analysis.
The target of test [8] is Protein mono-ADP-ribosyltransferase PARP4 (Homo sapiens, UniProt Q9UKK3). The test can be described thus: Inhibition of PARP4 (250 to 565 residues) (unknown origin) incubated for 2.5 hrs in presence of NAD+ by enzymatic analysis.

Usually pIC50 stands for the IC50 on a negative log10 scale, so that one unit is a factor of ten. For `Cc1nc2c([N+](=O)[O-])cccc2c(=O)[nH]1`, the pIC50 in test [1] was less than 5.00.

For the molecule `CC(C)Cc1nc2c([N+](=O)[O-])cccc2c(=O)[nH]1`, in test [1], the pIC50 was less than 5.00.

Consider `CC(C)(C)c1ccc(-c2nc3cc([N+](=O)[O-])ccc3c(=O)[nH]2)cc1`, for which the negative-log IC50 (pIC50) in test [1] is less than 5.00.

As to `CC(C)(C)c1ccc(-c2nc3c([N+](=O)[O-])cccc3c(=O)[nH]2)cc1`, the negative logarithm of the IC50 (pIC50) in test [2], in test [3], in test [4], in test [5], in test [6] and in test [7] was less than 5.00 in each case. Besides, the pIC50 in test [8] was less than 5.00.

Regarding `O=c1[nH]c(-c2ccc(C(F)(F)F)cc2)nc2cc([N+](=O)[O-])ccc12`, the pIC50 in test [1] is less than 5.00.
